The data set concerns Pansy plants. Kind of data set: Pansy yellow leaf number (leaf yellowing). The format is in vivo. The protocol: All studies were conducted in the greenhouse at the research farm of Valent BioSciences Corporation (Long Grove, Ill.). Pansy plants were obtained either from local retailers as mature plants, or plugs from wholesale nurseries. Plugs of Pansy plants were transplanted into an 18-cell flat filled with Promix BX (available from Premier Horticulture Inc. Quakertown, Pa.) and grown for about 30 days prior to treatment. During growing periods, plants received daily irrigation and weekly fertilizer (1 g/L all purpose fertilizer 20-20-20, The Scotts Company, Marysville, Ohio).
Uniform plants were selected for the study. Prior to chemical treatment, plants were saturated with water and then drained for about two hours. A total of 20 mL chemical solution, which is equivalent to about 10% of the cell volume, was applied to each plant with 3 mL solution foliar applied to canopy and 17 mL solution drench applied to root zone. Unless specified, watering of plants was stopped after chemical treatment.
After chemical treatment, plants were arranged in a randomized complete block experimental design. The plants were rated daily for the extent of wilting on a scale from 1 (no wilting) to 4 (complete wilting) to generated a sales index rating. A rating of 2.5 was the point at which a plant was determined to be unmarketable and the previous day was recorded as the shelf life of that plant in days. […] Leaf transpiration rate was measured after treatment using a LI-1600 Steady State Porometer (LI-Cor, Lincoln, Nebr.). The transpiration rate of each treatment was calculated as the percentage of that of control at each day to reduce day-to-day variation caused by changes of environmental condition such as light intensity, humidity, and temperature.

The mark [1] stands for this setting: 3 mg, Matrix Orange, drought, 3 d after treatment, Table 2.

On to `C#CC1(C)CC(=O)C=C(C)C1(O)/C=C/C(C)=C\C(=O)OC` (stereo not shown) [PBI-429, 8′ acetylene-ABA methyl ester], for which the Yellow leaf number is, setting by setting: (0.3 mg PBI-429, no water, Whispers White, 3 d after treatment, Table 15) 12.3; under setting [1], 12.2.
Turning to `COC(=O)C=C(C)C=CC1(O)C(C)=CC(=O)CC1(C)C1CC1` (stereo not shown) [PBI-696, 8′ cyclopropane ester], the Yellow leaf number under setting [1] was 12.3.
For the compound “(S)-5-(1-hydroxy-2,6,6,-trimethyl-4-oxo-2-cyclohexen-1-yl)-3-methyl-(2Z,4E)-pentadienoic acid [ABA]”, the Yellow leaf number runs as follows: (0.3 mg ABA, Matrix Yellow, 3 d after treatment, Table 5) 5.3; (0.3 mg ABA, Matrix Yellow, 3 d after treatment, Table 6) 7.8; (0.3 mg ABA, Matrix Yellow, 3 days after treatment, Table 17) 7.0; (0.3 mg ABA, Matrix Yellow, 7 days after treatment, Table 17) 12.0; (1 mg, Matrix Orange, drought, 3 d after treatment, Table 1) 8; (3 mg ABA, Colossus Formula Mix, 3 days after treatment, Table 20) 4.0. The Yellow leaf number reads like this: (3 mg ABA, Colossus Formula Mix, 8 days after treatment, Table 20) 6.5; (3 mg ABA, Delta Premium Pure White, 3 days after treatment, Table 21) 2.5; (3 mg ABA, Delta Premium Pure White, 3 days after treatment, Table 22) 7.2; (3 mg ABA, Delta Premium Pure White, 3 days after treatment, Table 24) 5.3; (3 mg ABA, Delta Premium Pure White, 7 days after treatment, Table 22) 11.7; (3 mg ABA, Delta Premium Pure White, 7 days after treatment, Table 24) 10.5. The Yellow leaf number runs as follows: (3 mg ABA, Delta Premium Pure White, 8 days after treatment, Table 21) 3.8; (3 mg ABA, Matrix Yellow, 3 d after treatment, Table 5) 7.5; (3 mg ABA, Matrix Yellow, 3 d after treatment, Table 6) 10.2; (3 mg ABA, Matrix Yellow, 3 days after treatment, Table 17) 12.7; (3 mg ABA, Matrix Yellow, 7 days after treatment, Table 17) 17.8; (3 mg ABA, no water, Matrix Premium Rose, 3 d after treatment, Table 13) 8.3. For the same compound, the Yellow leaf number runs as follows: (3 mg, Clear Sky Yellow, drought, 3 d after treatment, Table 8) 3.2; (3 mg, Crown Azure Blue, drought, 3 d after treatment, Table 9) 5.7; (3 mg, Delta Premium Pure Golden Yellow, advanced seedling stage (1 month old), drought, 3 d after treatment, Table 4) 13.8; (3 mg, Delta Premium Pure Golden Yellow, drought, 3 d after treatment, Table 3) 11.0; (3 mg, Matrix Orange, drought, 3 d after treatment, Table 1) 11; under setting [1], 12.0. The Yellow leaf number is given as 11.3 (3 mg, Matrix Yellow, drought, 3 d after treatment, Table 7); 14.7 (3 mg, Matrix Yellow, drought, 3 d after treatment, Table 10); 19.0 (10 mg, Delta Premium Pure Golden Yellow, advanced seedling stage (1 month old), drought, 3 d after treatment, Table 4); 14.7 (10 mg, Delta Premium Pure Golden Yellow, drought, 3 d after treatment, Table 3); 14 (10 mg, Matrix Orange, drought, 3 d after treatment, Table 1); 15.2 (10 mg, Matrix Orange, drought, 3 d after treatment, Table 2). Further, the Yellow leaf number reads like this: (30 mg ABA, Colossus Formula Mix, 3 days after treatment, Table 18) 9.0; (30 mg ABA, Colossus Formula Mix, 3 days after treatment, Table 20) 8.0; (30 mg ABA, Colossus Formula Mix, 8 days after treatment, Table 20) 12.3; (30 mg ABA, Colossus Formula Mix, 9 days after treatment, Table 18) 13.0; (30 mg ABA, Delta Premium Pure White, 3 days after treatment, Table 19) 5.2; (30 mg ABA, Delta Premium Pure White, 3 days after treatment, Table 21) 7.2. For the same compound, the Yellow leaf number reads like this: (30 mg ABA, Delta Premium Pure White, 3 days after treatment, Table 22) 13.5; (30 mg ABA, Delta Premium Pure White, 3 days after treatment, Table 23) 14.3; (30 mg ABA, Delta Premium Pure White, 3 days after treatment, Table 24) 12.2; (30 mg ABA, Delta Premium Pure White, 7 days after treatment, Table 22) 20.2; (30 mg ABA, Delta Premium Pure White, 7 days after treatment, Table 23) 21.3; (30 mg ABA, Delta Premium Pure White, 7 days after treatment, Table 24) 18.2. Besides, the Yellow leaf number reads like this: (30 mg ABA, Delta Premium Pure White, 8 days after treatment, Table 21) 9.0; (30 mg ABA, Delta Premium Pure White, 9 days after treatment, Table 19) 11.0; (30 mg ABA, Matrix Premium Rose, 3 d after treatment, Table 11) 14.0; (30 mg ABA, Matrix Yellow, 3 d after treatment, Table 5) 25.2; (30 mg ABA, Matrix Yellow, 3 d after treatment, Table 6) 17.3; (30 mg ABA, Matrix Yellow, 3 days after treatment, Table 17) 19.3. The same compound yielded a Yellow leaf number (30 mg ABA, Matrix Yellow, 7 days after treatment, Table 17) of 28.5; a Yellow leaf number (30 mg ABA, no water, Matrix Premium Rose, 3 d after treatment, Table 13) of 15.3; a Yellow leaf number (30 mg, Clear Sky Yellow, drought, 3 d after treatment, Table 8) of 9.2; a Yellow leaf number (30 mg, Crown Azure Blue, drought, 3 d after treatment, Table 9) of 15.0; a Yellow leaf number (30 mg, Delta Premium Pure Golden Yellow, advanced seedling stage (1 month old), drought, 3 d after treatment, Table 4) of 28.2; a Yellow leaf number (30 mg, Delta Premium Pure Golden Yellow, drought, 3 d after treatment, Table 3) of 21.0. In addition, the Yellow leaf number is on record as 18 (30 mg, Matrix Orange, drought, 3 d after treatment, Table 1); 21.3 (30 mg, Matrix Orange, drought, 3 d after treatment, Table 2); 21.0 (30 mg, Matrix Yellow, drought, 3 d after treatment, Table 7); 21.2 (30 mg, Matrix Yellow, drought, 3 d after treatment, Table 10).
